How the values were obtained:
[1] = test system: RD-995 tumor; experiment: Rosenberg tumor model, RD-995 pulmonary metastases; type: in vivo, mice; settings: single agent; IL-2 180,000 IU i.p. every 12 h for 5 days or M40403 3 mg/kg; day 14
Source text: RD-995 is a skin fibrosarcoma that was induced by chronic ultraviolet light exposure of a C3H/HeN mouse (Samlowski et al., 1995). This tumor grows in non-immunosuppressed mice, and is thus termed a “progressor” tumor. RD-995 is sensitive to LAK cell mediated killing in vitro. Pulmonary metastases derived from RD-995 are exquisitely sensitive to IL-2 treatment (with or without infusion of LAK cells).
Four groups (n=6 mice per group) of mice (control, M40403 alone, IL-2 only, IL-2+M40403) were acclimated to metabolic cages. Once stabilized, mice were injected with 10^6 RD-995 tumor cells intravenously. An IL-2 only treatment group served as a positive control, with IL-2 treatment beginning 3 days after tumor injection (IL-2 given at 180,000 IU i.p. every 12 h for 5 days). Simultaneously, parallel groups of mice began M40403 (3 mg/kg), concurrently with IL-2. On day 14, mice were sacrificed by anesthetic overdose. After anterior thoracotomy, India ink solution (30 ml India ink, 4 drops ammonium hydroxide in 170 ml distilled water) was instilled into the trachea of each mouse via 18 ga. needle, until the lungs were completely expanded. Lungs were then excised and bleached in 5-10 ml Fekete's solution (100 ml 70% ethanol, 10 ml formaldehyde, 5 ml glacial acetic acid) for at least 24 h prior to enumeration of metastases using a magnifying lens.

[2] = test system: mice; experiment: IL-2 dose escalation study with or without M40403 (deaths, blood pressure); type: in vivo; settings: absence of M40403
Experimental: Mice (n=6 per group) were treated with escalating doses of IL-2 of 180,000, 200,000, 250,000, 300,000, 350,000 and 400,000 IU IL-2 injected i.p. twice daily for 5 days (10 doses). Experimental animals received M40403 (3 mg/kg) i.p. b.i.d. in conjunction with IL-2. Two hours after the last dose of IL-2, systolic blood pressure was measured via tail cuff (Stoelting, Wood Dell, Ill.) and using a PowerLab digital signal transducer (AD instruments, Mountain View, Calif.). Analysis was performed using Chart 3.6.1 software (AD instruments).

[3] = test system: mice; experiment: IL-2 induced hypotension in mice, systolic blood pressure via tail cuff; type: in vivo; settings: IL-2 180,000 IU i.p. twice daily for 5 days
Experimental: IL-2, M40403 and IL-2/M40403 were administered to mice (n=6 per group) in order to determine the effect of these compounds on mean blood pressure. 180,000 IU of IL-2 was administered intraperitoneally (i.p.) twice daily for 5 days (10 doses) to each animal of the first group on a daily basis for 4 days. Experimental animals received M40403 (0.03-3 mg/kg) i.p.b.i.d. in conjunction with IL-2. Parallel groups of untreated mice or mice receiving M40403 alone (at the highest dose tested of 3 mg/kg) served as a control. Two hours after the last dose of IL-2, systolic blood pressure was measured via tail cuff (Stoelting, Wood Dell, Ill.) and using a PowerLab digital signal transducer (AD instruments, Mountain View, Calif.). Analysis was performed using Chart 3.6.1 software (AD instruments).
Preliminary experiments were also performed with M40401.

[4] = test system: Meth A tumor; experiment: Meth A fibrosarcoma tumor model (malignant ascites), survival; type: in vivo, BALB/c mice; settings: IL-2 180,000 IU s.c. every 12 h for 5 days from day 6
Source text: Meth A was induced in a BALB/c mouse by methylcholanthrene treatment (obtained from Lloyd Old, MSKCC). This very aggressive fibrosarcoma is one of the rare tumors resistant to LAK cell mediated cytolysis in vitro. When injected intraperitoneally into mice (malignant ascites), this tumor responds to IL-2 therapy with improved survival. The mechanism is not completely established but may involve nitric oxide as a component of the treatment response. See Yim et al., J. Immunol. 155: 4382-4390 (1995). […] The Meth A model serves to provide a resistant tumor model to evaluate potentially synergistic antitumor effects of combinations of IL-2 with M40403. This model is more representative of the majority of IL-2 treated human cancers, which at best undergo disease stabilization following IL-2 treatment followed by eventual disease progression.
Groups of 8 normal BALB/c mice (Control, M40403 only, IL-2 only, IL-2+M40403) were injected with 2×10^6 Meth A tumor cells intraperitoneally (day 0). On day 6 following tumor implantation, mice began treatment with IL-2 (180,000 IU s.c. every 12 h for 5 days) with or without concomitant treatment with M40403 (3 mg/kg, s.c.). Survival of the mice was used as the major endpoint to assess therapeutic responses.

IL-2: Interleukin-2 (IL-2), a cytokine which is primarily synthesized by activated T lymphocytes
number of tumor nodules in lungs [1]: eliminated
deaths ([2]; IL-2 200,000 IU b.i.d. for 5 days): 1 deaths of 6 mice
deaths ([2]; IL-2 250,000 IU b.i.d. for 5 days): 1 deaths of 6 mice
deaths ([2]; IL-2 300,000 IU b.i.d. for 5 days): 1 deaths of 6 mice
deaths ([2]; IL-2 400,000 IU b.i.d. for 5 days): 6 deaths of 6 mice
reduction of systolic BP following IL-2 administration ([3]; versus control): approximately 50%
Mean Systolic BP ([3]; mice, n=6 per group, M40403 alone at 3 mg/kg, tail cuff two hours after last dose of IL-2): 44.53
systolic BP, mean ([3]; mice, n=6 per group, M40403 alone at 3 mg/kg, two hours after last dose of IL-2): 45±8.0 mmHg
survival [4]: 19 days

— patent US20050175580A1, “Compositions and methods for enhancing cytokine activity and treating hypotension associated with the administration of cytokines” (priority 2001, published 2005)
